PubChem BioAssay (NCI)
Values joined by “and” are separate entries in the source; they are usually repeats but may differ in a detail not shown here. Equal entries are not always repeated. The list shows a part of the results, in another mix than the full data. Some of these compounds have results that are not shown, active ones among them.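 A percent growth of 40 corresponds to 60% growth inhibition; 0 means no net growth; -100 means all cells died. Active threshold: below 10.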 Active and inactive are the calls of the source.

The molecules below were run on MOLT-4 leukemia (assay: NCI-60 one-dose screen, 48 h (100 = growth as untreated, 0 = no growth, -100 = all killed)). Details: 10 µM.
With ClCCN(CCCl)Cc1cc(Cl)cc(Cl)c1 the growth was inactive: 18.3%. With ClCCN(CCCl)Cc1ccsc1Br the growth was inactive: 33.5%. With N#CC(C#N)=Cc1cccc(Br)c1 the growth was inactive: 101%. Fc1cccc(CN(CCCl)CCCl)c1 was tested, and the growth was inactive: 80.3%. Cc1cc2nc(CN(CCCl)CCCl)[nH]c2cc1C was tested, and the growth was inactive: 36.9%. In the case of ClCCN(CCCl)C1c2ccccc2-c2ccccc21, the growth is reported as inactive: 52.2%. With CC(C)(C)N(CCCl)CCCl the growth was inactive: 91.1%. For N#CC(C#N)=Cc1ccc(Br)cc1, the growth was inactive: 97.9% and inactive: 110%. With CCOc1ccc([N+](=O)[O-])cc1CN(CCCl)CCCl the growth was inactive: 86.6%. In the case of CN(C)CCOC(=O)C(O)(c1ccccc1)c1ccccc1, the growth is reported as inactive: 49.9%. For ClCCN(CCCl)Cc1ccc(Cl)c(Cl)c1, the growth was inactive: 88.1%. CC(=O)CI was tested, and the growth was inactive: 117%. For CCCN(CCCl)CCCl, the growth was inactive: 103%. With BrCCN(CCBr)Cc1ccccc1 the growth was inactive: 100%. For CCNCCCl, the growth was inactive: 115%. O=C(OCCN1CCCC1)C(O)(c1ccccc1)c1ccccc1 was tested, and the growth was inactive: 115%. COc1ccc(N=C=S)cc1CN(CCCl)CCCl was tested, and the growth was inactive: 21.1%. For ClCCN(CCCl)C1CCCCC1, the growth was inactive: 88.5%. With CC[N+](C)(C)Cc1cccc(Cc2ccccc2)c1OC(=O)N(C)C the growth was inactive: 97.8%. COc1ccc([N+](=O)[O-])cc1CN(CCCl)CCCl was tested, and the growth was inactive: 89.3%. In the case of ClCCCCCC(CCl)NCCCl (stereo not drawn), the growth is reported as inactive: 53.4%. For COCc1c(CN(CCCl)CCCl)cnc(C)c1O, the growth was inactive: 101%. In the case of CN(CCBr)CCBr, the growth is reported as inactive: 80.6%.

What follows are molecules tested on SR leukemia in the same assay as above. Details: 10 µM.
ClCCN(CCCl)Cc1cc(Cl)cc(Cl)c1 was tested, and the growth was active: 6.6%. With ClCCN(CCCl)Cc1ccsc1Br the growth was active: 6.72%. With Fc1cccc(CN(CCCl)CCCl)c1 the growth was active: 3.67%. For Cc1cc2nc(CN(CCCl)CCCl)[nH]c2cc1C, the growth was active: -9.8%. In the case of ClCCN(CCCl)C1c2ccccc2-c2ccccc21, the growth is reported as inactive: 48.3%. With CC(C)(C)N(CCCl)CCCl the growth was inactive: 83.4%. N#CC(C#N)=Cc1ccc(Br)cc1 was tested, and the growth was inactive: 99.6%. CCOc1ccc([N+](=O)[O-])cc1CN(CCCl)CCCl was tested, and the growth was inactive: 68.1%. With CN(C)CCOC(=O)C(O)(c1ccccc1)c1ccccc1 the growth was inactive: 77.6%. ClCCN(CCCl)Cc1ccc(Cl)c(Cl)c1 was tested, and the growth was inactive: 82.7%. For CC(=O)CI, the growth was inactive: 107%. CCCN(CCCl)CCCl was tested, and the growth was inactive: 86.5%. In the case of BrCCN(CCBr)Cc1ccccc1, the growth is reported as inactive: 97%. For CCNCCCl, the growth was inactive: 109%. With COc1ccc(N=C=S)cc1CN(CCCl)CCCl the growth was inactive: 22.5%. With ClCCN(CCCl)C1CCCCC1 the growth was inactive: 88.8%. For CC[N+](C)(C)Cc1cccc(Cc2ccccc2)c1OC(=O)N(C)C, the growth was inactive: 90%. For ClCCCCCC(CCl)NCCCl (stereo not drawn), the growth was inactive: 27.4%. With COCc1c(CN(CCCl)CCCl)cnc(C)c1O the growth was inactive: 71.5%. For CN(CCBr)CCBr, the growth was inactive: 12.8%.
